Among the data in ChEMBL document CHEMBL1152407, “Identification of inhibitors of checkpoint kinase 1 through template screening” (J Med Chem, 2009) are IC50 and Ratio IC50 values, retold here.

The target in test [1] is T1, Serine/threonine-protein kinase Chk1 (Homo sapiens, UniProt O14757).
T1 sequence (O14757 whole entry): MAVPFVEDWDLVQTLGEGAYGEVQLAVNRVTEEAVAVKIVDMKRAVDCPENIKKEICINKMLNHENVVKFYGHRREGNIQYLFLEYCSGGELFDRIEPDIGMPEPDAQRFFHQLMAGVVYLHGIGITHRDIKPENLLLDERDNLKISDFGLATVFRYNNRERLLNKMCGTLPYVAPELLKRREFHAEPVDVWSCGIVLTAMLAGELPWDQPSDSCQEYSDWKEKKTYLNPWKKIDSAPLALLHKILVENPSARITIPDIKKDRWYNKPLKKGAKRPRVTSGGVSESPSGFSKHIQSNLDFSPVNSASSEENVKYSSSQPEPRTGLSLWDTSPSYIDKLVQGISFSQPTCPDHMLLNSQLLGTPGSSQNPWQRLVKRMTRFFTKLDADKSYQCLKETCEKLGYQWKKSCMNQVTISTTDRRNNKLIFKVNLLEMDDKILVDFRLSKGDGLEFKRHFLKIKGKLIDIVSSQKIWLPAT

Test [2] is described as follows: Selectivity ratio of IC50 for CHK2 to IC50 for CHK1.

The IC50 is the concentration that inhibits the measured activity by half. Lower therefore signals greater potency in that assay. As to `NCC1CN(c2c(-c3ccccc3)cnc3[nH]ncc23)CCO1` (racemic), in test [1], the concentration for half-maximal inhibition (IC50) was 890 nM. In other words, the sub-micromolar range. For the molecule `NC[C@@H]1CN(c2c(-c3ccccc3)cnc3[nH]ncc23)CCO1`, the Ratio IC50 in test [2] stood at 8. The same molecule showed an IC50 in test [1] of 700 nM. As for `NC[C@H]1CN(c2c(-c3ccccc3)cnc3[nH]ncc23)CCO1`, it took 860 nM to reach half-maximal inhibition in test [1] (IC50).
